No end group written: not given here.
Key:
[1] = test system: retinal ganglion cells (RGCs); test: RGC survival after optic nerve crush (FluroGold backfilling, retinal wholemounts); type: in vivo; details: weekly intravitreal injection (0, 7, 14 days) of 1.88 nM in 5 μl PBS, 21 days after ONC, rat; n = 6 rats/12 eyes; ONC + PBS 295 ± 15
Procedure: In a separate set of experiments comprising the same treatment groups, 6 rats/treatment (i.e. 12 eyes/optic nerves/treatment) were used to evaluate RGC axon regeneration by immunostaining with growth-associated protein-43 (GAP-43) in the optic nerve.
In further experiments, 12 rats (24 eyes/optic nerves)/treatment received 1.88 nM PEDF-34 eye drops daily. Six rats (12 eyes)/treatment were used to assess RGC survival at 21 days using FG backfilling, whilst the remaining 6 rats (12 eyes/optic nerves)/treatment were used to evaluate RGC axon regeneration at 21 days by GAP-43 immunohistochemistry. […]
Nineteen days after ONC, FG (Cambridge Biosciences, Cambridge, UK) was injected into the optic nerve, between the lamina cribrosa and the ONC site ([Vigneswara et al., 2013, 2014]). […] The identity of individual retinae was anonymised by a second investigator before image capture using a Zeiss epifluorescent microscope and the number of FG^+ RGCs counted in ImagePro Version 6.0 (Media Cybernetics) from captured images of 12 rectangular areas, 3 from each quadrant, placed at radial distances from the centre of the optic disc of the inner (1/6 eccentricity), midperiphery (1/2 eccentricity) and outer retina (5/6 eccentricity). The mean densities of FG^+ RGCs/mm^2 for each retina were determined.

[2] = Ophthalmoscope monitoring for corneal reactions to PEDF-34 eye drops; type: in vivo, rat; details: daily eye drops of 1.88 nM for 28 days
Procedure: Eyes receiving eye drops were carefully monitored with an ophthalmoscope for signs of corneal reactions to PEDF-34, including redness, inflammation or opacity throughout the duration of the experiment. […] Daily PEDF-34 eye drops induced a gradual increase in the levels of PEDF-34 in both the vitreous and the retina over the first 7 days which peaked at 14 days to 1.4 ± 0.045 nM and 0.65 ± 0.025 nM, respectively (Fig. 4). After extending the treatments for 28 days, no further increase in the level of PEDF-34 was apparent in either the vitreous or retina (Fig. 4).

[3] = daily eye drops of 1.88 nM for 28 days, ELISA
[4] = Accumulation of PEDF-34 in the eye after eye drops, western blot and densitometry; type: in vivo, rat; details: for fold increase in PEDF-34 in vitreous and retina over intact eyes: single eye drop of 1.88 nM, western blot densitometry
Procedure: Protein extraction and western blots were performed according to our previously published methods ([Vigneswara et al., 2013, 2014]). Briefly, tissues from 6 rats/treatment (i.e. 12 retinae) were homogenised in ice-cold lysis buffer (20 mM Tris, pH 7.4, 2 mM EDTA, 0.5 mM EGTA, 150 mM NaCl, 1% NP-40 and 5 μl/ml protease inhibitor cocktail) and 40 μg of total protein was resolved in 12% SDS gels, transferred to polyvinylidene fluoride membranes (Millipore, Watford, UK) and probed overnight at 4 °C with appropriate antibodies. Bands were detected with HRP-labelled secondary antibodies (GE Healthcare, Buckinghamshire, UK) using an enhanced chemiluminescence kit (GE Healthcare).
Western blots were scanned into Adobe Photoshop (Adobe Systems Inc., San Jose, CA, USA) keeping all scanning parameters the same between blots. Bands were then analysed using the built-in-macros for gel analysis in ImageJ (NIH, USA, http://imagej.nih.gov/ij) and means ± SEM plotted in Microsoft Excel (Microsoft Corporation, CA, USA) ([Ahmed et al., 2005, 2006a, 2011; Douglas et al., 2009]). The integrated density of each protein band in each lane was derived from 3 separate blots from 3 independent experiments.

With “DPFFKVPVNKLAAAVSNFGYDLYRVRSSTSPTTN [PEDF-34]” the “number of FG+ RGC surviving” value [1] was 1720 ± 38 RGCs/mm^2, the “signs of corneal reactions (redness, inflammation or opacity)” value [2] was “None of the PEDF-34 treated eyes exhibited any of these symptoms” and the “time at which levels in vitreous and retina peaked (plateau thereafter)” value [3] was 14 days. For the same sequence, the “time within which PEDF-34 accumulates in the vitreous” value ([4]; after eye drop delivery of 1.88 nM) was at most 0.5 h, the “fold increase in PEDF-34 in vitreous and retina over intact eyes” value (from here on “fold increase”) ([4]; 0.5 h, 3 blots from 3 independent experiments) was 4.9 fold and the “fold increase” value ([4]; 4 h) was 3.8 fold. For the same sequence, the “fold increase” value ([4]; 24 h) was 1.8 fold.

Reference: article PMC4604765, “Eye drop delivery of pigment epithelium-derived factor-34 promotes retinal ganglion cell neuroprotection and axon regeneration” (Molecular and Cellular Neurosciences, 2015)
